ChEMBL document CHEMBL1255295, “Convergent in vivo and in vitro selection of ceftazidime resistance mutations at position 167 of CTX-M-3 beta-lactamase in hypermutable Escherichia coli strains” (2008)
In brackets after ≈: the same amount, converted by molar mass.

Tested on: Escherichia coli
Test: Antimicrobial activity against Escherichia coli EPI300 transformant harboring pCC1 by agar dilution method
Format: functional

CO/N=C(\C(=O)N[C@@H]1C(=O)N2C(C(=O)O)=C(COC(C)=O)CS[C@H]12)c1csc(N)n1 [CEFOTAXIME]
MIC: 0.06 µg/mL (≈ 0.132 µM)
